The source of these data is PMC7766583, “Ionic Environment Affects Biomolecular Interactions of Amyloid-β: SPR Biosensor Study” (International Journal of Molecular Sciences, 2020).

For assay [1], the target named is T1, amyloid beta 1-40 (human, UniProt P05067 672-711).
T1 construct: amyloid beta fragment 1-40 (40 amino acids), human, synthetic; numbers count on: the Aβ peptide; Used in a monomeric form (Preparation C) and an oligomeric form (Preparation A); The two forms are told apart by the assay; also called Aβ_(1–40); Aβ; source: synthetic peptide; bought: AnaSpec
As to the kind of experiment: SPR; 17β-HSD10 captured on an amine-coupled anti-17β-HSD10 antibody; monomeric Aβ1-40 (Preparation C) injected at 1 μM for 5 min; running buffer 10 mM HEPES pH 7.4, 5 mM Na+, BSA 200 μg/mL, K+ 0-500 mM, Mg2+ 0-50 mM; 25 °C, 20 µL/min; reference-compensated response 5 min after return to buffer. The conditions noted are these: both partners purified. (SPR reads the build-up and loss of mass on a sensor chip optically.)

Assay [2] deals with T2, amyloid beta 1-42 (human, UniProt P05067 672-713).
T2 construct: amyloid beta fragment 1-42 (42 amino acids), human, synthetic; numbers count on: the Aβ peptide; Used in an oligomeric form (Preparation A) and a monomeric form (Preparation B); The two forms are told apart by the assay; also called Aβ_(1–42); Aβ; source: synthetic peptide; bought: AnaSpec
Kind of assay: SPR; 17β-HSD10 captured on an amine-coupled anti-17β-HSD10 antibody; oligomeric Aβ1-42 (Preparation A) injected at 1 μM for 5 min; running buffer 10 mM HEPES pH 7.4, 5 mM Na+, BSA 200 μg/mL, K+ 0-500 mM, Mg2+ 0-50 mM; 25 °C, 20 µL/min; reference-compensated response 5 min after return to buffer. As to conditions: both partners purified.

B1: 17β-hydroxysteroid dehydrogenase type 10 (enzyme, human, UniProt Q99714 1-261, looked up)
chain: MAAACRSVKGLVAVITGGASGLGLATAERLVGQGASAVLLDLPNSGGEAQAKKLGNNCVFAPADVTSEKDVQTALALAKGKFGRVDVAVNCAGIAVASKTYNLKKGQTHTLEDFQRVLDVNLMGTFNVIRLVAGEMGQNEPDQGGQRGVIINTASVAAFEGQVGQAAYSASKGGIVGMTLPIARDLAPIGIRVMTIAPGLFGTPLLTSLPEKVCNFLASQVPFPSRLGDPAEYAHLVQAIIENPFLNGEVIRLDGAIRMQP
notes: 17β-hydroxysteroid dehydrogenase type 10 (17β-HSD10), human, recombinant, bought from Fitzgerald; also called 17β-HSD10; 17β-hydroxysteroid dehydrogenase 10; source: bought: Fitzgerald (human, recombinant)
As for B1, the binding result in assay [1] and in assay [2] was “binds” throughout.
